## Apparent affinities of Ab-14 variants for a coronavirus HR2 peptide

Reference: Engelhart et al. 2022, doi:10.1038/s41597-022-01779-4. File: FLAb, binding data.

Target: peptide PDVDLGDISGINAS, taken from heptad repeat 2 (HR2) of SARS-CoV-2 spike.

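The starting antibody came from a phage panning campaign against this peptide. The library (AAYL50) carries one to three amino acid substitutions per variant, with no insertions or deletions. In AlphaSeq, yeast of one mating type display the scFv and yeast of the other type display the target. Mating (16 h, 30 °C) was followed by selection of diploids and sequencing of their barcodes. Read counts were normalised to the haploid input and turned into Kd by a linear fit to BCL2-family pairs of known affinity, for each replicate. Mating was done three times.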

Each scFv is VH, a (GGGGS)3 linker, VL, as in the parent Ab-14, and differs from it in the CDRs of the light chain only.
VH: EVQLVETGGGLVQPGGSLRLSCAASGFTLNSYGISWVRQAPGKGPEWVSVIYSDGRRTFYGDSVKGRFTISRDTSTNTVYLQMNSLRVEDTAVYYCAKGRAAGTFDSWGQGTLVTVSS
VL: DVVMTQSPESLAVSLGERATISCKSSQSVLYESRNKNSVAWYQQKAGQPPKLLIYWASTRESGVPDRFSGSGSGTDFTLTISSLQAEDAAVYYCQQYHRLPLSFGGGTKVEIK

The parent's light chain CDRs are KSSQSVLYESRNKNSVA, WASTRES, QQYHRLPLS; each variant's own CDRs replace them letter for letter.
Scale: log10 of Kd in nM, estimated from mating counts; low values are strong binders.
The mean shown is taken over the replicates in which the pair was detected.
An entry "n.d." has no value in the source: the pair was not observed among the diploids in that replicate. This suggests poor binding but is not conclusive.
Parent in this assay: reference entry 0.65, copy in this library 1.68.
Nonspecific signal, from three strains lacking the peptide, appeared in 18% of pairings of library AAYL50, centred on 4.19 (5% of these signals below 2.99); values are not corrected for it. Also given: how often the same scFv was detected with the empty control strains, with their mean in brackets.

| CDR-L1 | CDR-L2 | CDR-L3 | log10 Kd, replicates | mean, log10 nM | empty controls |
|---|---|---|---|---|---|
| KSIQSVLYESRNKNSPA | WASTRES | QQYHILPLS | n.d. / n.d. / n.d. | n.d. | 2/9 (2.22) |
| KSSQSVLYESRNKVSVA | WASTRES | WQYHRLPLS | 4.30 / n.d. / 6.09 | 5.19 | 2/9 (4.65) |
| KSSQSVLYESRNKNSVS | WAQTRES | QQYHRLPLS | n.d. / n.d. / n.d. | n.d. | 0/9 |
| KSSQSVLYISRNKNSVA | WASTRES | QQYARLPLR | 3.79 / 3.07 / 4.82 | 3.89 | 2/9 (4.69) |
| KSSRSVLYESRNKNSVA | WASELES | QQYHRLPLS | n.d. / n.d. / n.d. | n.d. | 0/9 |
| KKSQSVLYESRNKNSVA | RASTRES | QQYHRLVLS | n.d. / n.d. / n.d. | n.d. | 1/9 (2.30) |
| KSSTSVLYESRNKNSVA | WAYTAES | QQYHRLPLS | n.d. / 4.26 / n.d. | 4.26 | 2/9 (3.53) |
| KSSQSVLYESRNKNSTA | WASTRER | QQYHRLPLS | n.d. / n.d. / n.d. | n.d. | 2/9 (4.47) |
| KSSQSVLYESRNKNSVA | WSSTRES | QQMHRLPLS | n.d. / 3.44 / n.d. | 3.44 | 2/9 (3.54) |
| KSSQSVLYESRNKNSVA | WASTRES | QHYHRLPLS | 0.54 / 0.68 / 0.75 | 0.66 | 2/9 (3.22) |
| KSSQSVLYQSRNKNFVA | WASTRES | QQYHRLPLL | n.d. / n.d. / 3.89 | 3.89 | 3/9 (3.36) |
| KSSQSVLYESRRKNSVA | WASTRES | HQYHRLPLS | n.d. / 3.69 / n.d. | 3.69 | 3/9 (3.89) |
| KSSQSVLYCSRNKNSVA | WASTRNS | QQYHRLELS | n.d. / 4.76 / 6.32 | 5.54 | 2/9 (4.47) |
| KSSQSVLYCSRNKLSVA | WASTRES | PQYHRLPLS | n.d. / n.d. / n.d. | n.d. | 2/9 (3.64) |
| VSSQSVLYESRNKNSVA | PASTRES | QQYHRLNLS | n.d. / n.d. / n.d. | n.d. | 1/9 (4.54) |
| KSSQSVLYESRNKNSVC | WASTRES | QGYHRLPLY | n.d. / 3.39 / 3.87 | 3.63 | 5/9 (5.09) |
| KSSASVLYESRNKNSVA | WASTRES | QQKHRLPLF | n.d. / n.d. / n.d. | n.d. | 2/9 (4.45) |
| DSFQSVLYESRAKNSVA | WASTRES | QQYHRLPLS | n.d. / n.d. / n.d. | n.d. | 0/9 |
| KSSQSVMYMSRNKNSVA | WASTRES | QQYHRMPLS | 3.65 / 3.20 / 5.06 | 3.97 | 5/9 (3.76) |
| VSSVSVLYESRPKNSVA | WASTRES | QQYHRLPLS | 1.85 / 2.33 / 1.73 | 1.97 | 0/9 |
| KSSQSVLYERNNENSVA | WASTRES | QQYHRLPLS | 0.46 / 0.66 / 0.43 | 0.52 | 0/9 |
| KSRQSVLYFSRNKNSVA | WASTRES | QVYHRLPLS | 3.52 / 2.99 / n.d. | 3.26 | 2/9 (3.83) |
| KSSDSVLRYSRNKNSVA | WASTRES | QQYHRLPLS | 1.38 / 1.45 / 1.50 | 1.44 | 4/9 (4.70) |
| KSSQSVLDESRNKNSVA | EASTRER | QQYHRLPLS | -0.03 / 0.34 / 0.12 | 0.14 | 2/9 (3.56) |
| KSSQSVLYESRNKKSVA | AASTRES | QQYHRHPLS | 0.52 / 0.95 / 0.74 | 0.74 | 4/9 (4.27) |
| ISSQSVLYGSRNKNMVA | WASTRES | QQYHRLPLS | 4.35 / n.d. / n.d. | 4.35 | 3/9 (4.36) |
| FSSQSVLYESRNKNLVA | WASTRES | QQEHRLPLS | n.d. / n.d. / n.d. | n.d. | 2/9 (3.99) |
| KSSQSVLYEERNGNSVA | WASTRSS | QQYHRLPLS | 0.22 / 0.49 / 0.63 | 0.45 | 0/9 |
| KSSQSVLYESRNKDSVA | WASTRES | FQYHRLPLS | 1.76 / 1.26 / 1.58 | 1.53 | 2/9 (4.00) |
| KSSQSVLYESRNKISNA | WASTRES | QQYMRLPLS | 4.83 / n.d. / n.d. | 4.83 | 4/9 (4.18) |
| KSSQSVLYEKRNKNSVA | WASHRES | QQYHRLHLS | n.d. / n.d. / n.d. | n.d. | 0/9 |
| YSSKSVLYESRNKNSVA | WASTRES | QQYHTLPLS | 1.75 / 1.44 / 1.62 | 1.60 | 0/9 |
| KSSNSVLYESRNKPSVA | LASTRES | QQYHRLPLS | 3.03 / 3.07 / 2.94 | 3.01 | 0/9 |
| KSSQSVLNASRNKNSVA | WARTRES | QQYHRLPLS | 1.58 / 1.65 / 1.59 | 1.61 | 1/9 (3.73) |
| KSSQSVLYESRNKNSVA | WASTPMS | QQYDRLPLS | 1.72 / 1.55 / 1.63 | 1.63 | 0/9 |
| KSSQSVLYESRNKNSVA | WASTRES | QFYMRFPLS | n.d. / n.d. / n.d. | n.d. | 1/9 (3.15) |
| GSSQSVLYESRNKNSVA | WASTVES | QQYHRGPLS | n.d. / 3.24 / n.d. | 3.24 | 1/9 (3.88) |
| KFMQSVLYMSRNKNSVA | WASTRES | QQYHRLPLS | 0.98 / 1.27 / 1.16 | 1.14 | 0/9 |
| KSSQSVQYESRNKNSVA | WALTRES | QQYHRLPLS | 4.17 / 4.00 / 3.90 | 4.02 | 6/9 (4.06) |
| KVSQSVLYEPENKNSVA | WASTRES | QQYHRLPLS | 1.32 / 1.43 / 1.43 | 1.39 | 3/9 (3.73) |
| KSSQSVLYESRNKNSSA | WASTRES | QQYHTIPLS | n.d. / n.d. / n.d. | n.d. | 0/9 |
| KSSQSEAYESRNKNSVA | WASTRES | QQYHRLPLK | n.d. / n.d. / n.d. | n.d. | 0/9 |
| KSSQSVLYRSRNKNSLA | WASTRES | QQYHRLPLS | n.d. / n.d. / n.d. | n.d. | 0/9 |
| KDSQSVLYESRNKNSVA | WASERES | QQYHRLPLP | n.d. / 3.92 / 5.88 | 4.90 | 1/9 (4.67) |
| KSSQSVLYESRNKNSVP | WALTRES | QQYHRLPGS | n.d. / n.d. / n.d. | n.d. | 1/9 (4.18) |